# Results as given in PubChem BioAssay AID504775 (Broad Institute, 2011).
# The list shows a part of the results, in another mix than the full data. Active and inactive are the calls of the source.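 How the source made its calls: active means mean replicate activation of at least 60% and every replicate at or above 60%; inconclusive means mean or all-replicate condition met, but not both; inactive means mean below 60% and not all replicates reaching 60%.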
# Test: activators of SR-BI mediated DiI-HDL uptake, primary screen, ldlA[mSR-BI] CHO cells, DiI fluorescence (AID 504775);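 further: 0% = median plate neutral-control signal and 100% = twice that signal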
# Conditions: 3 h, at 12.5 µM, hits give high values, 100 = double the neutral-control signal
# Outline: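 Material – SR-BI-overexpressing, LDLR-lacking CHO cells · Medium – BSA-supplemented, HEPES-buffered Ham's F12, pH 7.4 · Doses – single concentration · Times – compound with DiI-HDL co-incubation, 3 h at 37 °C · Measured by – bottom-read fluorescence, 550/595 nm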
row,SMILES,activation
1,O=P(Nc1nccs1)(c1ccccc1)c1ccccc1,inactive: 6.46%
2,CC(C)C(=O)NC(Sc1ccccc1)C(Cl)(Cl)Cl (stereo not given),inactive: -6.22%
3,c1nnnn1CCn1cnnn1,inactive: 0.532%
4,CC(=O)NC(SC(=S)N(C)C)C(Cl)(Cl)Cl (stereo not given),inactive: 9.66%
5,O=[N+]([O-])c1ccc(O)c(/C=N/Nc2ccc([N+](=O)[O-])cc2[N+](=O)[O-])c1,inactive: 0.939%
6,O=[As](O)(c1ccccc1)c1ccc(O)cc1,inactive: -7.62%
7,C(Cc1nn[nH]n1)Cc1nn[nH]n1,inactive: -4.24%
8,O=C(OC1CN2CCC1CC2)c1cccc(Cl)c1 (stereo not given),inactive: -1.36%
9,COc1ccc(N)c([N+](=O)[O-])c1[N+](=O)[O-],inactive: -6.89%
10,CN(C)C1(CNC(=O)c2ccc(Cl)c(S(N)(=O)=O)c2)CCCCC1,inactive: 14.3%
11,O=P(Nc1ccccn1)(c1ccc(Br)cc1)c1ccc(Br)cc1,inactive: 15.8%
12,C[C@H]1OP(=O)(Oc2ccccc2)[C@H](O)[C@H](O)[C@H]1N=[N+]=[N-] (stereo not given in full),inactive: 10.4%
13,Cc1ccc(OP(=O)(Nc2ccccn2)Oc2ccc(C)cc2)cc1,inactive: 16.7%
14,CC(=O)NC(SC(=S)N(CC(C)C)CC(C)C)C(Cl)(Cl)Cl (stereo not given),inactive: 12.3%
15,COC(=O)c1cc2c(s1)N=C(c1ccccc1)N(C)P2(=O)N1CCOCC1 (stereo not given),inactive: -18.4%
16,CCC(=O)N1C2C3N(C(=O)CC)C1C1N(C(=O)CC)C(C(N1C(=O)CC)N3C(=O)CC)N2C(=O)CC,inactive: 9.8%
17,O=C(OC1CN2CCC1CC2)c1ccccc1 (stereo not given),inactive: 15.7%
18,CN(C)C(=O)Oc1noc2ccccc12,inactive: 8.48%
19,O=c1c2cc([N+](=O)[O-])ccc2[nH]c2c([N+](=O)[O-])cc([N+](=O)[O-])cc12,inactive: -29.5%
20,Cc1ccccc1OP(=O)(Nc1ccccn1)Oc1ccccc1C,inactive: -8.06%
21,CC(NC(=O)COC(=O)C(O)(c1ccccc1)c1ccccc1)c1ccccc1 (stereo not given),inactive: 12.6%
22,O=C(NC1CCS(=O)(=O)C1)NP(=S)(Oc1ccccc1)Oc1ccccc1 (stereo not given),inactive: 4.36%
23,CCNC(=S)/N=C(\N)N[N+](=O)[O-],inactive: 12.1%
24,Cc1ccc(NP(=O)(Oc2cccc(C)c2)Oc2cccc(C)c2)nc1,inactive: 23%
25,c1ccc(-c2nn[nH]n2)c(-c2nn[nH]n2)c1,inactive: 16.3%

row,SMILES,activation
1,O=P1(N(CCCl)CCCl)OCCC2CCCCN21 (stereo not given),inactive: -12.1%
2,COC(=O)C1(C)COP(=O)(NCc2ccccc2)OC1 (stereo not given),inactive: 12.2%
3,N#C/C(=C\c1ccc(N(CCBr)CCBr)cc1)C(N)=O,inactive: -9.04%
4,CC(=O)c1ccc(N2CC2c2ccncc2)cc1 (stereo not given),inactive: -9.31%
5,C[C@@H]1C=CCP(=O)(Oc2ccccc2)O1 (stereo not given in full),inactive: 15%
6,C[C@H]1OP(=O)(Oc2ccccc2)C[C@@H]2O[C@@H]21 (stereo not given in full),inactive: 2.02%
7,Cc1ccccc1CN(C)C(=O)COC(=O)C(O)(c1ccccc1)c1ccccc1,inactive: 16.9%
8,CC(=O)Nc1ccc(Oc2c([N+](=O)[O-])cc([N+](=O)[O-])cc2[N+](=O)[O-])cc1,inactive: 10%
9,CC(=O)Nc1ccc([As](=O)(O)O)c(O)c1,inactive: 24.8%
10,CCOc1ccc(C2=NCC(CBr)S2)cc1 (stereo not given),inactive: -0.0845%
11,O=P1(Nc2nc3ccc(Cl)cc3s2)COc2ccccc2O1 (stereo not given),inactive: 19.7%
12,CCc1cc(O)c([N+](=O)[O-])c(C)c1[N+](=O)[O-],inactive: 13.2%
13,CC(C)(C)C(=O)NC(Sc1ccccc1)C(Cl)(Cl)Cl (stereo not given),inactive: 15.9%
14,CC(C)CC(=O)NC(Sc1ccc(Cl)cc1)C(Cl)(Cl)Cl (stereo not given),inactive: 3.9%
15,Nc1cc(N)c2nonc2c1[N+](=O)[O-],inactive: 15.5%
16,O=C(NC(Sc1ccncn1)C(Cl)(Cl)Cl)c1ccccc1 (stereo not given),inactive: 16.6%
17,Oc1ccccc1CNc1ccccn1,inactive: -4.36%
18,NC(=O)c1cc([N+](=O)[O-])cc([N+](=O)[O-])c1N,inactive: 12.6%
19,Cc1ccc(N/C(=N/P(=O)(N2CCOCC2)N2CCOCC2)N2CCOCC2)cc1,inactive: 30.7%
20,CN(C(=O)Cc1ccc(Cl)c(Cl)c1)[C@H]1CCCC[C@H]1N1CCCC1,inactive: 5.36%
21,COc1ccccc1OP(=O)(Nc1ccc(C)cn1)Oc1ccccc1OC,inactive: 13.5%
22,Clc1ccc(Cl)c(NC2=NCC(CBr)S2)c1 (stereo not given),inactive: -13.3%
23,CN1CCCC(OC(=O)C(c2ccccc2)c2ccccc2)C1 (stereo not given),inactive: 15.3%
24,CCN(N=Nc1nonc1N)c1nonc1N,inactive: 31.8%
25,Nc1cccc2ccc([As](=O)(O)O)cc12,inactive: 9.39%
